Results: publication PMC4257678, “Influence of Sampling on the Determination of Warfarin and Warfarin Alcohols in Oral Fluid” (PLoS ONE, 2014)

Test: clinical
Settings: human, in vivo, po

CC(=O)CC(c1ccccc1)c1c(O)c2ccccc2oc1=O (stereo not drawn) [WAR, 3-(α-acetonylbenzyl)-4-hydroxycoumarin]
Kp (non-stimulated OF/UP ratio (mean ± s.d.)): 0.3 ± 0.1 | Kp (non-stimulated OF/UP ratio (range)): 0.1 to 0.5 | Kp (stimulated OF/UP ratio (mean ± s.d.)): 0.7 ± 0.2 | Kp (stimulated OF/UP ratio (range)): 0.3 to 0.9
